{"sequences": {"note": "Amino acid sequences for entries named in this document (tags omitted). A change or cut given only in a name is not applied to a line headed by its entry.", "UniProt O14757": "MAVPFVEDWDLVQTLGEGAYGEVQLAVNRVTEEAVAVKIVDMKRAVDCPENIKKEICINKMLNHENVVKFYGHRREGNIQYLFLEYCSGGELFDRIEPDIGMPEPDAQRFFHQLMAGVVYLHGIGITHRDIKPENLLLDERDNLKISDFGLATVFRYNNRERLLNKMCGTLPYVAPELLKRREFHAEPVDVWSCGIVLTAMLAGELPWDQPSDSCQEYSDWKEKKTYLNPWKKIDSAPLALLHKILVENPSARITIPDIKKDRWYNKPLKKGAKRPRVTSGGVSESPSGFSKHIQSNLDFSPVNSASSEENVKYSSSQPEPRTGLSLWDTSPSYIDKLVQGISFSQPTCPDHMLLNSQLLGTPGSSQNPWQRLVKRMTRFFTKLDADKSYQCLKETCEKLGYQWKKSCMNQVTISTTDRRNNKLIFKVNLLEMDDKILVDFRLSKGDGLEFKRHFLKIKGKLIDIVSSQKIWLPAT", "UniProt O14920": "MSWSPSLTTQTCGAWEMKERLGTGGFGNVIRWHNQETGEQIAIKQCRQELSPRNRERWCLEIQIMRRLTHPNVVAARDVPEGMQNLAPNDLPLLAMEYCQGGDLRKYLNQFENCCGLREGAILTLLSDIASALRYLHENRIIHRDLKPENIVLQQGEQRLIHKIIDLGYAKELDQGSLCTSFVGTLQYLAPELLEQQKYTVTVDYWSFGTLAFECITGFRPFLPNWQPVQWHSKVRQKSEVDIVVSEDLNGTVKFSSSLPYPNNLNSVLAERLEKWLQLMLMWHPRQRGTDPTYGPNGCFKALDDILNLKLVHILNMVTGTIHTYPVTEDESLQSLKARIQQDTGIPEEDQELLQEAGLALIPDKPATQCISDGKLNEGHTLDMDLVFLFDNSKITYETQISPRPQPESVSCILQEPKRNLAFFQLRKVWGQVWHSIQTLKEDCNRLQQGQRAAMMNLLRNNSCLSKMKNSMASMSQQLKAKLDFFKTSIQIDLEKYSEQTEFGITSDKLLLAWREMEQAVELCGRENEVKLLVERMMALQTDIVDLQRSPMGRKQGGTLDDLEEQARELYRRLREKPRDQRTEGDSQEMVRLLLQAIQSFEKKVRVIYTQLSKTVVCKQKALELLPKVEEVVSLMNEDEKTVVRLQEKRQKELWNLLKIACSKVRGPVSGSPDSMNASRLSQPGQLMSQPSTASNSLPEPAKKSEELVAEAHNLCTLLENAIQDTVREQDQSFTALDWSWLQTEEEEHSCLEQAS", "UniProt P06239": "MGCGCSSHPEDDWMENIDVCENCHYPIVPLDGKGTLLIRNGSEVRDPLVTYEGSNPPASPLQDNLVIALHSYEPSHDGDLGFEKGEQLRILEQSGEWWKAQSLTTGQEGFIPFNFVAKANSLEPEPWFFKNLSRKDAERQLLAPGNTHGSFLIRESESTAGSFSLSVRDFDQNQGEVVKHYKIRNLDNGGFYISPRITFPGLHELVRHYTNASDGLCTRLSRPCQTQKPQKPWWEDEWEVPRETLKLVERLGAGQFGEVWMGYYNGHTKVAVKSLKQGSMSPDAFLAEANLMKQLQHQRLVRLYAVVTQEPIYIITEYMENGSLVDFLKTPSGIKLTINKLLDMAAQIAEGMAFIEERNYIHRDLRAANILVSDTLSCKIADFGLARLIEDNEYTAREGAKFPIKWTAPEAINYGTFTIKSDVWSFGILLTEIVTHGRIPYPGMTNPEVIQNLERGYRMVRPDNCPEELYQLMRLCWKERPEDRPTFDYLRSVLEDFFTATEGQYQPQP", "UniProt P06493, whole entry": "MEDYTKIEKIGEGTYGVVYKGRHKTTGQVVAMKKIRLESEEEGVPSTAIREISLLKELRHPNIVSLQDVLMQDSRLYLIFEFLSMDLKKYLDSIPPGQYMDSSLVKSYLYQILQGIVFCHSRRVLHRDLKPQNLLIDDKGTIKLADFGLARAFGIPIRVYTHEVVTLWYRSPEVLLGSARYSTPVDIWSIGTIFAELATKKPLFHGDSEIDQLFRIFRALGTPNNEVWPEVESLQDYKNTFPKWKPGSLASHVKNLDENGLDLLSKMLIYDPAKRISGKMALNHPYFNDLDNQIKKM", "UniProt Q15349, whole entry": "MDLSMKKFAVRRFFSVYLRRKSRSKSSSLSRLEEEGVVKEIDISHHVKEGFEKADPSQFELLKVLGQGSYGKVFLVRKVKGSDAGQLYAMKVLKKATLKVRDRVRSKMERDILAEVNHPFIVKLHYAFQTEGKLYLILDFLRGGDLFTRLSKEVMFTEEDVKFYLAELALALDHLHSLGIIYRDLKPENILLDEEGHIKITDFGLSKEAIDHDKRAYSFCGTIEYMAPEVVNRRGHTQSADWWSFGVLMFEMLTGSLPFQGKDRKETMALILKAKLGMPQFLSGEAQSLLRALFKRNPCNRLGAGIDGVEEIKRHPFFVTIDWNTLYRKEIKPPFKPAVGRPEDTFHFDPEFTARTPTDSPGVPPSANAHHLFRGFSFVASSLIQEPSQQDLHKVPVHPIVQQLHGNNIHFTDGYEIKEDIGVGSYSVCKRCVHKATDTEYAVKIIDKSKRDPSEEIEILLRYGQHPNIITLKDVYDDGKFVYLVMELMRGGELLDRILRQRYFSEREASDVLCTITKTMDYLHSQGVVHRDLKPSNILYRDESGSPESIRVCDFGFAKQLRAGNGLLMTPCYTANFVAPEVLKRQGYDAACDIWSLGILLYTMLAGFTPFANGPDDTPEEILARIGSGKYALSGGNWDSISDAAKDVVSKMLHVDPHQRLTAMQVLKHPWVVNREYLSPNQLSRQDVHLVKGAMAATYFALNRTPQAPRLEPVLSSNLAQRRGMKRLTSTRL", "UniProt Q9NYY3": "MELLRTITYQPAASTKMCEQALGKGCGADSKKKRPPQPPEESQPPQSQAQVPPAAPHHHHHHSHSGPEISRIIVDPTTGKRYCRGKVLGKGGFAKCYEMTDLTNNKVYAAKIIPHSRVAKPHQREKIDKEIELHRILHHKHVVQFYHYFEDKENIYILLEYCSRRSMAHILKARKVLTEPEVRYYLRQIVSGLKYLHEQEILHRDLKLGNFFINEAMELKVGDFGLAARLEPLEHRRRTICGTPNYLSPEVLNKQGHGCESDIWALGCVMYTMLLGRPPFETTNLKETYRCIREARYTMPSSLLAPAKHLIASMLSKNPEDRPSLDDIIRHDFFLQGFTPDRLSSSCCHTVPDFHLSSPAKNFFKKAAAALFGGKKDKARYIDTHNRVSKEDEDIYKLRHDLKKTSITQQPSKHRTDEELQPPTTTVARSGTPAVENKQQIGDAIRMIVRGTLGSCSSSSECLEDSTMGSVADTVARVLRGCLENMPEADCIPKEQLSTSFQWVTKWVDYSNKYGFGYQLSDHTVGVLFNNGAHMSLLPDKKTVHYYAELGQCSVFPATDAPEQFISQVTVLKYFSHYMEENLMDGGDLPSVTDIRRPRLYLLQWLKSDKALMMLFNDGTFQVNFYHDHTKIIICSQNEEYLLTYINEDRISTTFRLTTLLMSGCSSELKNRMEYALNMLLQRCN"}, "source": "patent US20140072613A1", "about": "“Compositions and Methods for Treating Cutaneous Scarring” (priority 2012, published 2014)", "format_in_all_cases": "biochemical", "key": {"266 human kinases [1]": {"target": "T1, 266 human kinases (Homo sapiens, UniProt O14733)", "T1 sequence (O14733 1-419)": "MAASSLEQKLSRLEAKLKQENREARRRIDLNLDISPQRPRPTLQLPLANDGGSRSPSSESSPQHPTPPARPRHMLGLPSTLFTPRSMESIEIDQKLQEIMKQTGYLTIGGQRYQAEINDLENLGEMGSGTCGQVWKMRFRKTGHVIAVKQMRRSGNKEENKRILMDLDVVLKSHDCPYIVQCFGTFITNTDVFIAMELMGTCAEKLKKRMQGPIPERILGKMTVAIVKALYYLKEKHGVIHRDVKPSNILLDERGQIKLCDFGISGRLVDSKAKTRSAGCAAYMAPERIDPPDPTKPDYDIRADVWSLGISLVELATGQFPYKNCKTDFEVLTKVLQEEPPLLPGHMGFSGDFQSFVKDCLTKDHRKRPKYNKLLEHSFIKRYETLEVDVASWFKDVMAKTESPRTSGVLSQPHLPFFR", "details": "MKK7β(h); 100 μM", "method_in_brief": "(§1)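 Steps: kinase transfers radiolabelled phosphate from ATP onto a positively charged substrate; the substrate is trapped on a negatively charged filter; bound radioactivity is counted by scintillation and compared with uninhibited (100%) activity.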"}, "266 human kinases [2]": {"target": "266 human kinases (Homo sapiens, UniProt O14757)", "details": "CHK1(h); 100 μM", "method_in_brief": "as §1"}, "266 human kinases [3]": {"target": "266 human kinases (Homo sapiens, UniProt O14920)", "details": "IKKβ(h); 100 μM", "method_in_brief": "as §1"}, "266 human kinases [4]": {"target": "266 human kinases (Homo sapiens, UniProt P00519, H396P)", "details": "Abl(H8396P)(h); 100 μM", "method_in_brief": "as §1"}, "266 human kinases [5]": {"target": "266 human kinases (Homo sapiens, UniProt P00519, M351T)", "details": "Abl(M351T)(h); 100 μM", "method_in_brief": "as §1"}, "266 human kinases [6]": {"target": "266 human kinases (Homo sapiens, UniProt P00533, T790M)", "details": "EGFR(T790M)(h); 100 μM", "method_in_brief": "as §1"}, "266 human kinases [7]": {"target": "266 human kinases (Homo sapiens, UniProt P06213)", "details": "IR(h), activated; 100 μM", "method_in_brief": "as §1"}, "266 human kinases [8]": {"target": "266 human kinases (Homo sapiens, UniProt P06239)", "details": "Lck(h); 100 μM", "method_in_brief": "as §1"}, "266 human kinases [9]": {"target": "266 human kinases (Homo sapiens, UniProt P06493)", "details": "CDK1/cyclinB(h); 100 μM", "method_in_brief": "as §1"}, "266 human kinases [10]": {"target": "266 human kinases (Homo sapiens, UniProt P07949, V804M)", "details": "Ret(V804M)(h); 100 μM", "method_in_brief": "as §1"}, "266 human kinases [11]": {"target": "266 human kinases (Homo sapiens, UniProt P10721, V560G)", "details": "cKit(V560G)(h); 100 μM", "method_in_brief": "as §1"}, "266 human kinases [12]": {"target": "266 human kinases (Homo sapiens, UniProt Q15349)", "details": "Rsk3(h); 100 μM", "method_in_brief": "as §1"}, "266 human kinases [13]": {"target": "T2, 266 human kinases (Homo sapiens, UniProt Q9H2K8)", "T2 sequence (Q9H2K8 1-898)": "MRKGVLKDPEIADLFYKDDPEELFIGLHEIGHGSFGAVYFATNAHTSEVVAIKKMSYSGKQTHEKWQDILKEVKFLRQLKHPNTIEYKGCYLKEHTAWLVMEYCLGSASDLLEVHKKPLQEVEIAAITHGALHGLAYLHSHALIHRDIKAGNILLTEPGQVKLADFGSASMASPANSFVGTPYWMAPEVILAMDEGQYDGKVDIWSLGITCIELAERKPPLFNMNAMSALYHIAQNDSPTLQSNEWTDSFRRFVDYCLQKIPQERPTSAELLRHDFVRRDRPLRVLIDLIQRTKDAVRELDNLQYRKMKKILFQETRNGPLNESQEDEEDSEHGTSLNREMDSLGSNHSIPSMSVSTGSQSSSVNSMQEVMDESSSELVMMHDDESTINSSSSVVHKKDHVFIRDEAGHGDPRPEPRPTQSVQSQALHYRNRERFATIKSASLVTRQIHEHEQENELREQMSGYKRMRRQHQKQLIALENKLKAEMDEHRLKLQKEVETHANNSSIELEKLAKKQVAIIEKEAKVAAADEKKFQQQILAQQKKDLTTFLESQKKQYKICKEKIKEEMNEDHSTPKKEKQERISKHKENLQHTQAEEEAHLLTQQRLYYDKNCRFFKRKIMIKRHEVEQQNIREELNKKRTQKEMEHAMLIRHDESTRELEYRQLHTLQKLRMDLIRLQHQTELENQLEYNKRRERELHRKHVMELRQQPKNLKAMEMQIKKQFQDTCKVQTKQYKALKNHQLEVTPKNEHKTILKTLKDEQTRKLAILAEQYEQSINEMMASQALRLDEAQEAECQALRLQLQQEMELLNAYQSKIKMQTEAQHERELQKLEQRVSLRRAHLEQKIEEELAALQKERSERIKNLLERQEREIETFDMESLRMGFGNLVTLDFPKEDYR", "details": "TAO3(h); 100 μM", "method_in_brief": "as §1"}, "266 human kinases [14]": {"target": "T3, 266 human kinases (Homo sapiens, UniProt Q9HBY8)", "T3 sequence (Q9HBY8 whole entry, looked up)": "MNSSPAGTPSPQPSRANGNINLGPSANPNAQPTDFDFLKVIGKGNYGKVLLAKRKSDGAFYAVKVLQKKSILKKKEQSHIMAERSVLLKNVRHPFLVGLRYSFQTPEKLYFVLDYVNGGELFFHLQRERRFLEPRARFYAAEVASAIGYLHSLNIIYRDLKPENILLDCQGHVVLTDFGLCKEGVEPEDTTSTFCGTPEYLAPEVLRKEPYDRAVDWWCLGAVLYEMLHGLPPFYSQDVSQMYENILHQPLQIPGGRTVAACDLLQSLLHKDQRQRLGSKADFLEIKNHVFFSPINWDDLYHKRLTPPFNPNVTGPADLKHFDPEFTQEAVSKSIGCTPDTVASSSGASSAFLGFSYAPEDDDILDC", "details": "SGK2(h); 100 μM", "method_in_brief": "as §1"}, "266 human kinases [15]": {"target": "266 human kinases (Homo sapiens, UniProt Q9NYY3)", "details": "Snk(h); 100 μM", "method_in_brief": "as §1"}}}
{"sequence": "YARAAARQARAKALNRQLGVA (mammal) [MMI-0200]", "values": [{"measurement": "% activity", "setting": "266 human kinases [1]", "value": 117, "unit": "%"}, {"measurement": "% activity", "setting": "266 human kinases [2]", "value": 115, "unit": "%"}, {"measurement": "% activity", "setting": "266 human kinases [3]", "value": 109, "unit": "%"}, {"measurement": "% activity", "setting": "266 human kinases [4]", "value": 121, "unit": "%"}, {"measurement": "% activity", "setting": "266 human kinases [5]", "value": 119, "unit": "%"}, {"measurement": "% activity", "setting": "266 human kinases [6]", "value": 113, "unit": "%"}, {"measurement": "% activity", "setting": "266 human kinases [7]", "value": 105, "unit": "%"}, {"measurement": "% activity", "setting": "266 human kinases [8]", "value": 113, "unit": "%"}, {"measurement": "% activity", "setting": "266 human kinases [9]", "value": 115, "unit": "%"}, {"measurement": "% activity", "setting": "266 human kinases [10]", "value": 105, "unit": "%"}, {"measurement": "% activity", "setting": "266 human kinases [11]", "value": 115, "unit": "%"}, {"measurement": "% activity", "setting": "266 human kinases [12]", "value": 109, "unit": "%"}, {"measurement": "% activity", "setting": "266 human kinases [13]", "value": 102, "unit": "%"}, {"measurement": "% activity", "setting": "266 human kinases [14]", "value": 119, "unit": "%"}, {"measurement": "% activity", "setting": "266 human kinases [15]", "value": 109, "unit": "%"}]}
